By UniProt entry, the sequences of proteins in these tests, tags left out.
UniProt Q923Y9, whole entry: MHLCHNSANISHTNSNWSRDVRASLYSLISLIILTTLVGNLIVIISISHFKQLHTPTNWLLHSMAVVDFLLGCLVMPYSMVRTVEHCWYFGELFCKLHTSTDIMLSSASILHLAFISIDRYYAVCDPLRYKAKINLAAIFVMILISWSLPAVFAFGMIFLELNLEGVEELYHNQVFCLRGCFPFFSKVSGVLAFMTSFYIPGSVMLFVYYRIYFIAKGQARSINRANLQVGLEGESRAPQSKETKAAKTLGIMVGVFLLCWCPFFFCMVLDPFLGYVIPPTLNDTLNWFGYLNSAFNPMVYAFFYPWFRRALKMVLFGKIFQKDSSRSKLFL

In US9181230B2, “Morpholine compounds and uses thereof” (Hoffmann-La Roche Inc., priority 2013, dated 2015):

Target: rat TAAR1 (Rattus norvegicus (Rat), UniProt Q923Y9)
Assay: Radioligand binding assay on rat TAAR1
Settings: read-out: Ki (μM) rat; rat TAAR1, membranes of HEK-293 cells, second value of the cell pair mouse/rat; tested form: HCl

SMILES: Clc1cccc(-c2cc(-c3ccc([C@@H]4CNCCO4)cc3)n[nH]2)c1
- Ki: 0.002 µM
